The values that follow are results of earlier work, collected in PMC8224742, “Evaluation of 1β-Hydroxylation of Deoxycholic Acid as a Non-Invasive Urinary Biomarker of CYP3A Activity in the Assessment of Inhibition-Based Drug–Drug Interaction in Healthy Volunteers” (Journal of Personalized Medicine, 2021).

The test system of this data set is CYP3A. The conditions noted are these: following 400 mg of FKZ ingestion; cited from earlier work.

With `OC(Cn1cncn1)(Cn1cncn1)c1ccc(F)cc1F` [FKZ, fluconazole], the “fold increase of MDZ AUC” value is reported as 2–3 fold.
